Assay results published in patent publication US12697352B2, “Instructions for composition and sensitivity” (Azura Ophthalmics Ltd., priority 2020, dated 2026).

Columns and labels:
[1] = taken by mouth; cited from earlier work
[2] = long-term topical use of the lotion, person with an open lesion on their scalp; cited from earlier work
[3] = tested on: patients; details: one of the ophthalmic studies described
Source text: In a clinical study three different concentrations were used; 0.1 wt. %, (10 subjects) 0.5 wt. % (12 subjects) and 1 wt. % (26 subjects).

| Compound | oral dose that may be toxic [1] [μg per day] | time to resolution of signs and symptoms of systemic toxicity after discontinuing [2] [days] | concentrations at which the phototoxicity effect is observed (at least as low as) [3] |
| --- | --- | --- | --- |
| [Se] [Selenium] | > 400 | – | – |
| selenium disulfide [SeS2] | – | ≤ 10 | about 0.5 wt. % |
